{"sequences": {"note": "Amino acid sequences for entries named in this document (tags omitted). Residues count along the entry.", "UniProt Q99835, 28-787 D473H": "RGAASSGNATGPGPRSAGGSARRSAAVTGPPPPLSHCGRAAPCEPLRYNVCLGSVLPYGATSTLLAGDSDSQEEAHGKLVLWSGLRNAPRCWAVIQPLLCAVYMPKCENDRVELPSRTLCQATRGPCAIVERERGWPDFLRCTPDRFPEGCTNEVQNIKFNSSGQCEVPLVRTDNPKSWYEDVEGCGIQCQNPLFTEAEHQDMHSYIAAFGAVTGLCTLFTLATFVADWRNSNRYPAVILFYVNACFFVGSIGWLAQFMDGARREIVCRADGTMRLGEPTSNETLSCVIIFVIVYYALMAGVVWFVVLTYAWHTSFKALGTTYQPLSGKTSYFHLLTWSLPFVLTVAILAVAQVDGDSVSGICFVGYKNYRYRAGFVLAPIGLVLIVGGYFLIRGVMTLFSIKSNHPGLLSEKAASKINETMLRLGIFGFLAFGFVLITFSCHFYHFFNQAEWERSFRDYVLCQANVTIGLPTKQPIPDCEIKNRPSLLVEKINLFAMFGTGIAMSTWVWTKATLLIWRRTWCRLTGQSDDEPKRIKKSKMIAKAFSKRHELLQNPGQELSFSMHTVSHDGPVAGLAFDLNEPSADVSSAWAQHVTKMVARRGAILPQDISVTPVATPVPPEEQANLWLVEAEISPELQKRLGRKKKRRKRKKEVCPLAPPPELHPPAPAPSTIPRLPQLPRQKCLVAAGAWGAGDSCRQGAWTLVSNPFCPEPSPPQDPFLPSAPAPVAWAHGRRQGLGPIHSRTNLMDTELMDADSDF"}, "source": "paper PMC3501270", "about": "(Bioorganic & medicinal chemistry, 2012)", "target": "mutant SmoD473H receptor (Homo sapiens, UniProt Q99835, D473H)", "experiment": "[3H]-cyclopamine saturation binding to Smo-D473H in U2OS cells", "conditions": "read-out: Kd for mutant SmoD473H receptor, U2OS cells overexpressing Smo-D473H", "data": [{"substance": "[^3H]-cyclopamine [^3[H]-cyclopamine]", "values": [{"measurement": "Kd", "value": "116 ± 21", "unit": "nM"}]}]}
